The record followed here is ChEMBL document CHEMBL1144497 (Bioorg Med Chem, 2007).

The target of this data set is T1, Liver carboxylesterase 1 (Homo sapiens, UniProt P23141).
T1 sequence (P23141 whole entry): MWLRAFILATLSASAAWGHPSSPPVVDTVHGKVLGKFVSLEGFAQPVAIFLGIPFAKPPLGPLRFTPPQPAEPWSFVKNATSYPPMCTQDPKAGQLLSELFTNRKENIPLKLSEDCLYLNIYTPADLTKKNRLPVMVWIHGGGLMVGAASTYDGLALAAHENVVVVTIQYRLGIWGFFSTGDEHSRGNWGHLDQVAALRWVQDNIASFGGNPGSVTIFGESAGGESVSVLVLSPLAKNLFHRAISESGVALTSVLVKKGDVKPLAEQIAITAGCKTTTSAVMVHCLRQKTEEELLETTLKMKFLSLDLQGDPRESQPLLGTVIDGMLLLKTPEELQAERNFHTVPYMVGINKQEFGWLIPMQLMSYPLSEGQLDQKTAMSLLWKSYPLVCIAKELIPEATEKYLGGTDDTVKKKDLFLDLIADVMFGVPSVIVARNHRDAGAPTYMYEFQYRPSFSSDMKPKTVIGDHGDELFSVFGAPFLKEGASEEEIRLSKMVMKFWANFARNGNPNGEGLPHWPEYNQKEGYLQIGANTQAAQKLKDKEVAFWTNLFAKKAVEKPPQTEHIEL
In words: Activity of human recombinant carboxylesterase 1 assessed as AUDA hydrolysis. Also on record: scale not given: the % may be the effect or the level left. The method in brief:
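Ester (100 μM) was incubated with purified baculovirus-expressed human carboxylesterase (hCE-1 or hCE-2, 5 μg; 333 nM) in 0.1 M sodium phosphate pH 7.4 at 37°C. Sampling was at 0, 30 and 60 min, with 60 min reported. Percent free acid (AUDA) formed was measured by LC-MS/MS. Values are averages of three separate measurements.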

Molecules are shown by their SMILES.

On to `CCC(C)OC(=O)CCCCCCCCCCCNC(=O)NC12CC3CC(CC(C3)C1)C2` (stereo unspecified), for which the Activity was found to be 50%.
